For `CC(=O)OCC1=CC(=O)C2(C(/C=C(C)/C=C/C=C(\C)CCC=C(C)C)OC(C)=O)OC2C1=O` (centres unmarked) [flagranone A], the Consumer exposure (12.74 g meat consumed per kg BW per day) was 0.0279 pg/kg BW/day and the “Human exposure (below European TTC value)” value (manufacturing workers, farmers and consumers) was under 1.5 μg/kg BW/day.

Reference: patent US20190167739A1, “COMPOSITION COMPRISING DUDDINGTONIA FLAGRANS” (INTERNATIONAL ANIMAL HEALTH PRODUCTS PTY LTD, priority 2016, published 2019)
